In patent US12187720B2, “Compounds for treatment of cancer” (ONCTERNAL THERAPEUTICS, INC., priority 2010, dated 2025):

What was measured:
in vivo = settings: female, Sprague-Dawley, rat, po, 10 mg/kg
[1] = Pharmacokinetic study in Sprague-Dawley rats; settings: rat, PO 10 mg/kg
HUVECs = assay: Endothelial cell growth inhibition (SRB), HUVEC; type: cell-based, human

Compound | Cmax (in vivo) [ng/mL] | RatPK_PO10mgk_Cmax [1] [ng/mL] | times more active against endothelial cells than against cancer cells (HUVECs) [times]
COc1cc(C(=O)c2csc(-c3ccccc3)n2)cc(OC)c1OC [1h, (2-Phenyl-thiazol-4-yl)-(3,4,5-trimethoxy-phenyl)-methanone] | 212 | 212 | –
COc1cc(C(=O)c2csc(Nc3ccc4[nH]ccc4c3)n2)cc(OC)c1OC [compound 55, (2-(1H-INDOL-5-YLAMINO)THIAZOL-4-YL)(3,4,5-TRIMETHOXYPHENYL)METHANONE] | – | – | 3
